Results published in patent US20170119925.

System: T1, Gln-Pro-Gln-Gly-Leu-Ala-Lys (QPQGLAK) peptide crosslinker
T1 sequence: QPQGLAK

Substance: activated human recombinant MMP-13
- kcat/Km (s^-1M^-1), digestion kinetics by HPLC: 729 s^-1M^-1
